Measured values taken from patent publication US9169209B2, “Compounds and compositions for the inhibition of NAMPT” (FORMA TM, LLC, priority 2011, dated 2015).

Test system: A2780 cells
Assay: In-Vitro Cell Proliferation Assay (SRB, 72 hours)
Type: cell-based
Settings: read-out: A2780 IC50, sulforhodamine B

`O=C(/C=C/c1cccnc1)Nc1ccc(S(=O)(=O)c2cccnc2N2CCOCC2)cc1` gave an IC50 of 100 to 1000 nM.
